Results published in patent US11390613B2, “Azole analogues and methods of use thereof” (UNIVERSITY OF CONNECTICUT, priority 2017, dated 2022).

System: Gli1 mRNA levels in the murine BCC cell line ASZ-001 (Hh pathway)
Test: Hh pathway inhibition: endogenous Gli1 mRNA (qRT-PCR) in ASZ-001 cells
Format: cell-based
Conditions: Mus musculus, ASZ001, 48 h
Description: Initial Hh inhibition studies.
General Information for Cell Culture Studies Protocols for general cell culture, qPCR, and Hh inhibition ASZ cells are as previously described.
General Information for Cell Culture Studies. Protocols for general cell culture, qPCR, and Hh inhibition ASZ cells are as previously described.
Gene Expression Assay Protocol (ASZ-001): Cells are seeded (10,000 cells per well; 100 μL total volume per well) in a 96-well tissue culture plate. After 24 h of incubation (37° C., 5% CO2), growth media was removed and replaced with low FBS media. Cells were incubated for an additional 24 h. After this time, DMSO (vehicle control) and liposomes (Aqueous Solution) were added to the wells. […]
Rt-PCR Protocol: Following treatment and incubation periods, both RNA extraction and cDNA synthesis were performed using a TaqMan Cells-to-CT (fast) kit. cDNA synthesis utilized a BioRad MyCycler and was programmed according to the manufacturer's instructions. Quantitative RT-PCR was performed on an ABI 7500 system and made use of the following TaqMan Gene Expression Probes: mouse ActB (Mm00607939_s1) and mouse Gli1 (Mm00494654_m1). Relative gene expression levels were computed via ΔΔCT method using GraphPad Prism. Corresponding IC50 values were calculated as mean±SEM for at least three separate experiments performed in triplicate.

Compound	IC50 [µM]
C[C@@]1(c2ccc(Cl)cc2Cl)OC[C@@H](COc2ccc(N3CCN(c4ccc(NC(=O)Oc5ccccc5)cc4)CC3)cc2)O1 [Compound 37, phenyl (4-(4-(4-(((2R,4R)-2-(2,4-dichlorophenyl)-2-methyl-1,3-dioxolan-4-yl)methoxy)phenyl)piperazin-1-yl)phenyl)carbamate]	> 10
C[C@]1(c2ccc(Cl)cc2Cl)OC[C@@H](COc2ccc(N3CCN(c4ccc(NC(=O)Oc5ccccc5)cc4)CC3)cc2)O1 [Compound 38, phenyl (4-(4-(4-(((2S,4R)-2-(2,4-dichlorophenyl)-2-methyl-1,3-dioxolan-4-yl)methoxy)phenyl)piperazin-1-yl)phenyl)carbamate]	> 10
